Test results reported in ChEMBL document CHEMBL1134417, “Hypoxia-selective antitumor agents. 16. Nitroarylmethyl quaternary salts as bioreductive prodrugs of the alkylating agent mechlorethamine” (2001).

What was measured:
EMT6 [1] = assay: Hypoxic cytotoxicity ratio was determined; settings: Mus musculus
EMT6 [2] = assay: Ability to reduce surviving fraction of EMT6 cells to 10% when exposed to N2 for 3 hrs; settings: Mus musculus
EMT6 [3] = assay: Ability to reduce surviving fraction of EMT6 cells to 10% when exposed to air for 3 hrs; settings: Mus musculus
Mus musculus [4] = assay: in vivo activity against aerobic and hypoxic cells in RIF-1 tumors when administered at a dose of 42.1 umol/kg in mice
Mus musculus [5] = assay: in vivo activity against aerobic and hypoxic cells in RIF-1 tumors when administered at a dose of 42.1 umol/kg in mice 30 min before exposure to radiation
Mus musculus [6] = assay: in vivo activity against aerobic and hypoxic cells in RIF-1 tumors when administered at a dose of 42.1 umol/kg in mice after 5 min of exposure to radiation
Mus musculus [7] = assay: in vivo activity against aerobic and hypoxic cells in RIF-1 tumors when administered at a dose of 23.7 umol/kg in mice
Mus musculus [8] = assay: in vivo activity against aerobic and hypoxic cells in RIF-1 tumors when administered at a dose of 23.7 umol/kg in mice 30 min before exposure to radiation
Mus musculus [9] = assay: in vivo activity against aerobic and hypoxic cells in RIF-1 tumors when administered at a dose of 23.7 umol/kg in mice after 5 min of exposure to radiation
Mus musculus [10] = assay: in vivo activity against aerobic and hypoxic cells in RIF-1 tumors when administered at a dose of 56.2 umol/kg in mice
Mus musculus [11] = assay: in vivo activity against aerobic and hypoxic cells in RIF-1 tumors when administered at a dose of 56.2 umol/kg in mice 30 min before exposure to radiation
Mus musculus [12] = assay: in vivo activity against aerobic and hypoxic cells in RIF-1 tumors when administered at a dose of 56.2 umol/kg in mice after 5 min of exposure to radiation

Cn1c(C[N+](C)(CCCl)CCCl)ccc1[N+](=O)[O-]
C10 (EMT6 [1]): 12 µM
C10 (EMT6 [2]): 27 µM
C10 (EMT6 [3]): 320 µM
Log cell kill (Mus musculus [4]): 0.25
Log cell kill (Mus musculus [5]): 0.48
Log cell kill (Mus musculus [6]): 0.23

Cn1ncc([N+](=O)[O-])c1C[N+](C)(CCCl)CCCl
C10 (EMT6 [1]): 17 µM
C10 (EMT6 [2]): 3.5 µM
C10 (EMT6 [3]): 85 µM
Log cell kill (Mus musculus [7]): 0.12
Log cell kill (Mus musculus [8]): 0.17
Log cell kill (Mus musculus [9]): 0.1

Cn1ccc(C[N+](C)(CCCl)CCCl)c1[N+](=O)[O-]
C10 (EMT6 [1]): 16 µM
C10 (EMT6 [2]): 18 µM
C10 (EMT6 [3]): 245 µM
Log cell kill (Mus musculus [10]): 0.24
Log cell kill (Mus musculus [11]): 0.38
Log cell kill (Mus musculus [12]): 0.47
